Assay results from BindingDB's records for PubMed 11160626 (Japan Tobacco, 2001).
pKi: −log10 of the molar value.

Amino acid sequences for entries named in this document (tags omitted).
UniProt P47746, whole entry: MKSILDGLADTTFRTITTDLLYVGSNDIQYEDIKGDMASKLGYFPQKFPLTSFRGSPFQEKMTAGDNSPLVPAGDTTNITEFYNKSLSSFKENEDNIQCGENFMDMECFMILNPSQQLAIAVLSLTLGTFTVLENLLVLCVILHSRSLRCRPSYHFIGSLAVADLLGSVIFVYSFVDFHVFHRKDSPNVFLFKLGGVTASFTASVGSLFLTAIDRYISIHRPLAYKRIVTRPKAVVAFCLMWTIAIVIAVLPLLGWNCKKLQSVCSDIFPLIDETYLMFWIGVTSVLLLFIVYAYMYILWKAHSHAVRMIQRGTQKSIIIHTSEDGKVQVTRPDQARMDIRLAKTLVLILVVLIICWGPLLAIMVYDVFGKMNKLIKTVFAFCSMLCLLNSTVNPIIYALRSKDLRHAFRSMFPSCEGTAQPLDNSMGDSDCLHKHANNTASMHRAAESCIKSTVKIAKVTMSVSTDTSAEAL

Biological target: Cannabinoid receptor 1 (Mus musculus, UniProt P47746)

CCCCCc1cc(O)c2c(c1)OC(C)(C)[C@@H]1CCC(C)=CC21 (stereo partly specified) [Tetrahydrocannabinol]
pKi: 8.08
